Laboratory results published in PubChem BioAssay (Tox21).
The entries are a selection whose mix differs from that of the whole data set. Records with an inconclusive call do not appear. A structure can be active in one record and inactive in another. A call without a number means that no potency is given here. The source made the active and inactive calls. Calls follow the shape of the dose curve; as a rule, active = well fitted inhibition curve with a large enough effect in the repeat runs; inconclusive = weak or mixed curves; inactive = no such curve, though single readings can be large or run the other way.

By UniProt entry, the sequences of proteins in these tests, tags left out.
UniProt P11712, whole entry: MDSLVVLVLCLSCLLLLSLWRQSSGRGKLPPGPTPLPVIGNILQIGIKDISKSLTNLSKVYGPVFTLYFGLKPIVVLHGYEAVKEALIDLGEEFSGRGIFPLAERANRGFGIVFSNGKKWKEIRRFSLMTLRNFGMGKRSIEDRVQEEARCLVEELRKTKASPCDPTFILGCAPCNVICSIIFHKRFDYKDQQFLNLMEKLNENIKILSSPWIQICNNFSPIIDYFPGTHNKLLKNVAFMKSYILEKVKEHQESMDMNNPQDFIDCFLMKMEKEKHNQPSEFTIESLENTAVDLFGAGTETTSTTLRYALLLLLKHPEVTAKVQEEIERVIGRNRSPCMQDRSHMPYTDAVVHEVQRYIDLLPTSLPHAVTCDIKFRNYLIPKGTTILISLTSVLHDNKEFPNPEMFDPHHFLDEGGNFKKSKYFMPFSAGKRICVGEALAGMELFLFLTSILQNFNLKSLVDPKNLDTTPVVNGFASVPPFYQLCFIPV

Biological target: Cytochrome P450 2C9 (Homo sapiens) (UniProt P11712)
Experiment: Cytochrome P450 Family 2 Subfamily C Member 9 (CYP2C9) small molecule antagonists: luciferase reporter qHTS assay (AID 1671198); also: nearly all actives have a fitted effect of over 50% in size
Settings: P450-Glo CYP2C9 enzyme assay, luciferin luminescence; series mostly up to 115 µM
From the text: U.S. Tox21 Program National Center for Advancing Translational Sciences [NCATS] U.S. Environmental Protection Agency [EPA] National Institutes of Environmental Health Sciences [NIEHS] National Toxicology Program [NTP] U.S. Food and Drug Administration [FDA] Tox21 Assay Overview: Cytochrome P450 (CYP) enzymes are membrane-bound hemeproteins that play a key role in metabolism of drugs and xenobiotics. Evaluation of the effect of chemicals on CYP isozymes is useful to minimize the adverse drug reactions and toxicities in drug development process. Tox21 chemicals were tested for their effect on CYP enzyme activities by using P450-Glo (TM) screening systems (Promega Corporation, Madison, WI). These systems provide a luminescent method containing proluciferin substrates and are converted to luciferin products by CYP isozymes. The luciferin products formed are detected with a luciferin detection reagent, and the amount of light produced is proportional to CYP activity. P450-Glo (TM) CYP2C9 screening system (Catalog. No. V9790) was used to detect the compounds that interfere in CYP2C9 activity.
Tox21 Assay Protocol Summary: Two ul of enzyme-substrate mix was dispensed into medium binding white/solid 1536-well plates (Greiner Bio-One North America Inc., Monroe, NC) using a BioRaptr Flying Reagent Dispenser (FRD, Beckman Coulter, Brea, CA). […] The assay plates were incubated at room temperature for 10 min. Then 2 ul of NADPH regeneration solution was added to each well of the assay plates using an FRD and incubated at 37C for 1 h. The reaction was stopped by adding 4 ul of detection reagent using an FRD and after 20 min incubation at room temperature the luminescence signal was measured using a ViewLux plate reader (Perkin Elmer, Shelton, CT). Data were expressed as relative luminescence units.
Potency is read from the fitted curve at half-maximal effect.

Structure (SMILES) | Potency
OCCSCCO | active: 36.2 µM and inactive
CCOP(=O)(CC)OCC | inactive
CC(C)OP(C)(=O)OC(C)C | active: 31.7 µM and inactive
CP(=O)(O)OCCC[Si](O)(O)O | inactive
Cc1ccc([N+](=O)[O-])c([N+](=O)[O-])c1 | inactive
Cc1c([N+](=O)[O-])cccc1[N+](=O)[O-] | inactive
O=[N+]([O-])[O-].[NH4+] | inactive
CCOP(=O)(CC)Oc1ccc([N+](=O)[O-])cc1 (stereo not drawn) | inactive
Nc1cc([N+](=O)[O-])cc([N+](=O)[O-])c1O | active: 8.15 µM
COP(C)(=O)OC | inactive
COc1ccc([N+](=O)[O-])cc1[N+](=O)[O-] | inactive
CC(C)N(CCO)C(C)C | inactive
O=[N+]([O-])OCC(CO[N+](=O)[O-])(CO[N+](=O)[O-])CO[N+](=O)[O-] | inactive
CCN(CC)CCCl | inactive
CN(C)CCCl | inactive
N#CBr | inactive
Cc1cccc([N+](=O)[O-])c1[N+](=O)[O-] | active: 12.6 µM
N=C(N)N[N+](=O)[O-] | inactive
